Values of other authors, collected in US20180110743A1, “COMPOSITIONS AND METHODS FOR TREATING HEPATOCELLULAR CARCINOMA” (Northwestern University, priority 2015, published 2018).

System: activated P glycoprotein
Conditions: background statement; cited from earlier work

In the case of Amonafide [AMN, reference compound], the “substrate for multi-drug resistance drug efflux pumps” value is given as “not a substrate”.
